System: cholesterol-fed rat
Experiment: Serum cholesterol lowering action in cholesterol-fed rat
Format: in vivo
Settings: alone, 10 mg/kg/day, once a day for 7 days, value to control
Procedure: The pharmacological experiment of serum cholesterol lowering action by the combination of compound 56 and atorvastatin or fenofibrate in cholesterol-fed rat.
Male Splague-Dawley rats weighing 300˜500 g (Nihon SLC Co. Ltd.) were fed MF-2 chow (Nihon Crea Co. Ltd.) until study onset. At the study onset, the chow was changed to MF-2 chow containing 1% cholesterol and 0.5% cholic acid. Compound 56 at 0.3 mg/kg, atorvastatin at 1 mg/kg or fenofibrate at 10 mg/kg dissolved in polyethylene glycol 400 were simultaneously administered once a day for 7 days. Twenty hours after the last administration, blood was collected from the abdominal aorta under ether anaesthesia, and serum was separated. The cholesterol value was measured using Cholesterol E Test Wako (Wako Pure Chemical Co. Ltd.). Furthermore, the effect of combined dosage of compound 56 at 0.3 mg/kg and atorvastatin at 1 mg/kg or fenofibrate at 10 mg/kg were examined similarly. The experimental No. of 1˜3, 4 and 5 indicates the case of compound 56 alone, atrovastatin alone and fenofibrate alone, respectively. The experimental 5 and 6 indicates the combined dosage examples in the present invention. Each reduction percent is shown as the value to control.
Except of the use of compound 37 instead of compound 56, quietly same experiment to pharmacological experiment 1 was carried out. Each reduction % is shown as the value to control.

CC(C)OC(=O)C(C)(C)Oc1ccc(C(=O)c2ccc(Cl)cc2)cc1 [Fenofibrate, fenofibrate, reference compound]
Reduction % of serum cholesterol value: 10.7%

— patent publication US7795229B2, “Serum cholesterol lowering agent or preventative or therapeutic agent for atherosclerosis” (Kotobuki Pharmaceutical Co., Ltd., priority 2003, dated 2010)
